The text below walks through data of US20240174727A1, “LONG-ACTING NATRIURETIC PEPTIDES AND USES THEREOF” (Eli Lilly and Company, priority 2022, published 2024).

This test concerns the target T1, rat NPRA (Rattus norvegicus, UniProt P18910).
T1 construct: Full-Length cDNA Cloning and Generation of Cell Lines Overexpressing Natriuretic Peptide Receptors (NPRs); expressed in transfected cells; host or cells: Jump-in T-Rex HEK293 cells, pJTI R4 CMV-TO MCS pA vector, tetracycline induction
T1 sequence (P18910 29-1057): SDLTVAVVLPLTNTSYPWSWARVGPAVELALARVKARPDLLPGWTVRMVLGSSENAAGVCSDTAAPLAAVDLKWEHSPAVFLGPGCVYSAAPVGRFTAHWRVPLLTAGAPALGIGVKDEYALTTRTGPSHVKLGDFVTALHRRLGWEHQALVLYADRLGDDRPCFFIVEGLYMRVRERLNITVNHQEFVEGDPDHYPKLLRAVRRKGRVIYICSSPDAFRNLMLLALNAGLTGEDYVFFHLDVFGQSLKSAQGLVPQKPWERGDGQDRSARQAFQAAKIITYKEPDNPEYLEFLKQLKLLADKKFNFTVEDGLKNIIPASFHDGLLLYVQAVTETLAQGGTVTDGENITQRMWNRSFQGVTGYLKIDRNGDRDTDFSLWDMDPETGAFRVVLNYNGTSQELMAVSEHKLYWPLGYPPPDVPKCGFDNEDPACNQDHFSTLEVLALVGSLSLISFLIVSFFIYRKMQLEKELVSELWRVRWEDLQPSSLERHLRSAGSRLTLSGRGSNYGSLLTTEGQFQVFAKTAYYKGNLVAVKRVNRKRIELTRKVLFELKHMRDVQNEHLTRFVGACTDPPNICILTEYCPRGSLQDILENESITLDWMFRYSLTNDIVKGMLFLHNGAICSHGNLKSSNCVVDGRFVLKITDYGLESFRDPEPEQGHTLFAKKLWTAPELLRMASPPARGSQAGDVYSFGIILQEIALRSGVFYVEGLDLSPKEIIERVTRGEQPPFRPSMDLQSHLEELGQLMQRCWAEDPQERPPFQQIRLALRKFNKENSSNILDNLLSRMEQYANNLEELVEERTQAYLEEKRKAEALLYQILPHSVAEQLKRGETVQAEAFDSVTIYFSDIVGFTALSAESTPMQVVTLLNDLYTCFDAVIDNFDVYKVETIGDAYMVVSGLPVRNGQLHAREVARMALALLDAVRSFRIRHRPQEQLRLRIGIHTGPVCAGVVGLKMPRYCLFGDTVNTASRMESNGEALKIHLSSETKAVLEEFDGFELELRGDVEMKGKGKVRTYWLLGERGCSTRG
In words: Rat NPRA cGMP activity assay (HTRF) in HEK293 cells overexpressing NPRA. In kind it is cell-based. On the procedure: All sequences were verified by full-length sequencing performed by ACGT DNA Sequencing Services (Wheeling, IL). The target cDNA was cloned into pJTI R4 CMV-TO MCS pA vector and then co-transfected with pJT1R4 Int vector into Jump-in™ T-Rex™ HEK293 cells for mammalian inducible expression using Jump-in™ T-Rex™ HEK293 kit and Lipofectamine LTX and Plus Reagent following manufacturer's protocols, as briefly described below.
Jump-in™ T-Rex™ HEK293 cells were plated in a BioCOAT® poly-D-lysine coated 6-well plate (Becton Dickinson, cat no. 354413) at 1 million cells/well in 2 mL culture medium and incubated for 18 h at 37° C. and 5% CO2 to 50-70% confluence. A cDNA mix was made in a 50 mL tube by adding 1.5 μg target cDNA, 1.5 μg pJT1R4 Int vector, 3 μL Plus Reagent, and 300 μL Opti-MEM I sequentially into the tube. A reagent mix was made in a separate 50 mL tube by adding 7.5 μL Lipofectamine LTX into 300 μL Opti-MEM I. The mixtures were incubated for 5 min at room temperature. The cDNA mix was then transferred into the reagent mix, mixed well, and incubated for additional 30 min at room temperature. A 500 μL of cDNA/Lipofectamine complex was then transferred to the wells of the cell plate in which the culture medium was changed to 2 mL of transfection medium containing DMEM with 4.5 g/L D-glucose supplemented with 10% FBS-HI and 20 mM HEPES. Transfected cells were cultured for 48 h in an incubator at 37° C. and 5% CO2. A subclone or pool from each overexpressing cell line was maintained in culture medium with the addition of 2 mg/mL G418 sulfate for the clone selection based on its built-in resistance to G418 sulfate for at least 3 weeks with medium changed every 2-3 days.
NPRs were overexpressed in T-Rex™ HEK293 cells following the induction with 300 ng/mL tetracycline in culture medium for 48 h. Induced cell lines in an exponential growth phase were treated with 0.05% trypsin-EDTA for a few seconds at room temperature, harvested in cell medium containing FBS to neutralize the trypsin, counted, and cryopreserved at the density of 2 million cells/mL in cell preservation solution containing FBS-HI with 5% DMSO. Cryopreserved cells were stored at −80° C. for a few days prior to transferring to a liquid nitrogen tank. Induced cell lines were then used for suspension assays to measure the activity of polypeptides to stimulate cGMP production in cGMP assays or for the preparation of cell membranes to measure the binding activity of polypeptides in competitive radioligand binding assays, as described below.
Test polypeptides were added starting at 10 μM concentration and at 10-fold decreasing concentrations to obtain 8-point concentration-response curves (i.e., 10 μM to 1 pM). The quantity of cGMP generated was detected using HTRF® technology and normalized to maximum amount produced by 100 nM amidated rat ANP and the minimum amount produced by assay buffer. Detailed steps are outlined below.
Stock solutions of test polypeptides (2 mM) dissolved in DMSO were first diluted 100-fold in assay buffer containing HBSS with Ca^2+ and Mg^2+, 5 mM HEPES, 0.5 mM IBMX, and 0.1% BSA or 0.1% casein (pH 7.4). The polypeptides were further serially diluted in 1:10 dilution steps in assay buffer containing 0.1% BSA or 0.1% casein to generate 8-point 2× working stock solutions ranging from 20 μM to […].
A 10 μL cell suspension containing 4000 cells was plated in Costar® half-area white opaque 96-well plates (Corning, cat no. 3693). Then 10 μL of assay buffer (basal activity), 200 nM of amidated rat ANP (maximum activity) or 2× working stock solutions of test polypeptides were transferred into the plate. Final concentration of DMSO in each well was 0.5%. The plate was shaken for 15 sec and then incubated for 40 min at room temperature.
The cGMP generated was measured using cGMP kit following the manufacturer's directions, as described below.
In general terms: TR-FRET usually uses a lanthanide donor and a delayed reading to cut background.

Setting [1] is: cGMP Assay (EC50, pM) w/BSA rNPRA, assay buffer with 0.1% BSA.

Where the note is “cGMP Assay (EC50, pM) w/Casein rNPRA, assay buffer with 0.1% casein”, `CC[C@H](C)[C@@H]1NC(=O)[C@H](CCCNC(=N)N)NC(=O)[C@H](CC(=O)O)NC(=O)[C@H]([C@@H](C)CC)NC(=O)[C@H](CCCNC(=N)N)NC(=O)CNC(=O)CNC(=O)[C@H](Cc2ccccc2)NC(=O)[C@@H](NC(=O)[C@H](CO)NC(=O)[C@H](CO)NC(=O)[C@H](CCCNC(=N)N)NC(=O)[C@@H]2CCCN2C(=O)[C@H](CCCCN)NC(=O)[C@H](CCC(=O)O)NC(=O)CNC(=O)[C@H](CCCCN)NC(=O)[C@H](CCC(=O)O)NC(=O)[C@H](CCCCN)NC(=O)[C@H](CCC(=O)O)NC(=O)[C@H](CCCCN)NC(=O)[C@H](CCC(=O)O)NC(=O)CC[C@H](NC(=O)CCCCCCCCCCCCCCCCCCC(=O)O)C(=O)O)CSSC[C@@H](C(=O)N2CCC[C@H]2C(=O)N[C@@H](CO)C(=O)N[C@@H](Cc2ccccc2)C(=O)N[C@@H](CCCNC(=N)N)C(=O)N[C@@H](Cc2c[nH]cn2)C(=O)NCC(=O)NCC(=O)N2CCC[C@H]2C(=O)N[C@@H](CO)C(=O)N[C@@H](CO)C(=O)NCC(=O)N[C@@H](C)C(=O)N2CCC[C@H]2C(=O)N2CCC[C@H]2C(=O)N2CCC[C@H]2C(=O)N[C@@H](CO)C(N)=O)NC(=O)CNC(=O)[C@H](CC(C)C)NC(=O)CNC(=O)[C@H](CO)NC(=O)[C@H](Cc2ccc(O)cc2)NC(=O)[C@H](Cc2c[nH]cn2)NC(=O)CNC1=O` [Example 55] registered an EC50 of 493 pM.

`CC[C@H](C)[C@@H]1NC(=O)[C@H](CCCNC(=N)N)NC(=O)[C@H](CC(=O)O)NC(=O)[C@H]([C@@H](C)CC)NC(=O)[C@H](CCCNC(=N)N)NC(=O)CNC(=O)CNC(=O)[C@H](Cc2ccccc2)NC(=O)[C@@H](NC(=O)[C@H](CO)NC(=O)[C@H](CO)NC(=O)[C@H](CCCNC(=N)N)NC(=O)[C@H](CCCNC(=N)N)NC(=O)[C@H](Cc2ccncc2)NC(=O)[C@H](CO)NC(=O)CNC(=O)[C@H](CCCCN)NC(=O)[C@H](CCC(=O)O)NC(=O)[C@H](CCCCN)NC(=O)[C@H](CCC(=O)O)NC(=O)[C@H](CCCCN)NC(=O)[C@H](CCC(=O)O)NC(=O)CC[C@H](NC(=O)CCCCCCCCCCCCCCCCCCC(=O)O)C(=O)O)CSSC[C@@H](C(=O)N2CCC[C@H]2C(=O)N[C@@H](CO)C(=O)N[C@@H](Cc2ccccc2)C(=O)N[C@@H](CCCNC(=N)N)C(=O)N[C@@H](Cc2c[nH]cn2)C(=O)NCC(=O)NCC(=O)N2CCC[C@H]2C(=O)N[C@@H](CO)C(=O)N[C@@H](CO)C(=O)NCC(=O)N[C@@H](C)C(=O)N2CCC[C@H]2C(=O)N2CCC[C@H]2C(=O)N2CCC[C@H]2C(=O)N[C@@H](CO)C(N)=O)NC(=O)CNC(=O)[C@H](CC(C)C)NC(=O)CNC(=O)[C@H](CO)NC(=O)[C@H](Cc2ccc(O)cc2)NC(=O)[C@H](Cc2c[nH]cn2)NC(=O)CNC1=O` [Example 38] displayed an EC50 under setting [1] of 40500 pM.

With `CC[C@H](C)[C@@H]1NC(=O)[C@H](CCCNC(=N)N)NC(=O)[C@H](CC(=O)O)NC(=O)[C@H]([C@@H](C)CC)NC(=O)[C@H](CCCNC(=N)N)NC(=O)CNC(=O)CNC(=O)[C@H](Cc2ccccc2)NC(=O)[C@@H](NC(=O)[C@H](CO)NC(=O)[C@H](CO)NC(=O)[C@H](CCCNC(=N)N)NC(=O)[C@H](CCCNC(=N)N)NC(=O)[C@H](Cc2ccncc2)NC(=O)[C@H](CO)NC(=O)CNC(=O)[C@H](CCCCN)NC(=O)[C@H](CCC(=O)O)NC(=O)[C@H](CCCCN)NC(=O)[C@H](CCC(=O)O)NC(=O)[C@H](CCCCN)NC(=O)[C@H](CCC(=O)O)NC(=O)CC[C@H](NC(=O)CCCCCCCCCCCCCCCCCCC(=O)O)C(=O)O)CSSC[C@@H](C(=O)N2CCC[C@H]2C(=O)N[C@@H](CO)C(=O)N[C@@H](Cc2ccccc2)C(=O)N[C@@H](CCCNC(=N)N)C(=O)N[C@@H](Cc2c[nH]cn2)C(=O)NCC(=O)N2CCC[C@H]2C(=O)N[C@@H](CO)C(=O)N[C@@H](CO)C(=O)NCC(=O)N[C@@H](C)C(=O)N2CCC[C@H]2C(=O)N2CCC[C@H]2C(=O)N2CCC[C@H]2C(=O)N[C@@H](CO)C(N)=O)NC(=O)CNC(=O)[C@H](CC(C)C)NC(=O)CNC(=O)[C@H](CO)NC(=O)[C@H](CCC(N)=O)NC(=O)[C@H](Cc2c[nH]cn2)NC(=O)CNC1=O` [Example 37], the EC50 under setting [1] turned out to be 84600 pM.

In general, EC50 refers to the concentration giving half of the maximal effect. Higher therefore signals lower potency in that assay.
